Assay results reported in ChEMBL document CHEMBL5505991, “Novel sulfonamide-indolinone hybrids targeting mitochondrial respiration of breast cancer cells” (Eur J Med Chem, 2024).

Protein sequences, listed by entry. Tags and fused reporters are not part of them. Lines headed by an entry give the natural chain unless they say otherwise; changes in a name come on top.
UniProt P11802: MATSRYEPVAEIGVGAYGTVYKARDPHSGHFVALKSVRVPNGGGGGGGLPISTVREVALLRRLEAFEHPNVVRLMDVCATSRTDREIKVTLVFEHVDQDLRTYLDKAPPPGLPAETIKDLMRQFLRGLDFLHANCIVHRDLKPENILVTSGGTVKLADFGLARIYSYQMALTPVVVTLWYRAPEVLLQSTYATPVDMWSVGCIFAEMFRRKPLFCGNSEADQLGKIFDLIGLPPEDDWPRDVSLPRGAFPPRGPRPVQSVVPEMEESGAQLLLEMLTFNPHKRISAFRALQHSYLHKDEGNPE
UniProt P24385: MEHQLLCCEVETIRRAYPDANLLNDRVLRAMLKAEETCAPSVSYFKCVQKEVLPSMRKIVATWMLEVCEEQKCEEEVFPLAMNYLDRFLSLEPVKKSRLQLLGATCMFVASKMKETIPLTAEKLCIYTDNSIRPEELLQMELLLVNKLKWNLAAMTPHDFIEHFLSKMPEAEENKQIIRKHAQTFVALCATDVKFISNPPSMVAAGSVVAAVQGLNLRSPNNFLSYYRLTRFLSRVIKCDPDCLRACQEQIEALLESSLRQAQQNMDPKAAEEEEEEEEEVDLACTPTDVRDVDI
UniProt Q9NWZ3, whole entry: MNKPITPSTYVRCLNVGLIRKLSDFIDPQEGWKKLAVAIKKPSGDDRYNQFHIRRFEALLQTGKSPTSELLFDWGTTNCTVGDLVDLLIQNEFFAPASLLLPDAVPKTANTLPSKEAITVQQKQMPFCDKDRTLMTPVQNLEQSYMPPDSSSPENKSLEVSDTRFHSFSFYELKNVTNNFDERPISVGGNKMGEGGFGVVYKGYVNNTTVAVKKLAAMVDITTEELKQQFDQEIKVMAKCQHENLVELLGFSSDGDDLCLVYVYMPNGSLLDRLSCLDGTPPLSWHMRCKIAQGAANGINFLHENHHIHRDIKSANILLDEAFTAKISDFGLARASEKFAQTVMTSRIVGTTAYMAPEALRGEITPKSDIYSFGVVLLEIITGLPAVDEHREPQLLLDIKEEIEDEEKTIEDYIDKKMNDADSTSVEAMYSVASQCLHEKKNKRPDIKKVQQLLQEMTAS
UniProt P09619, whole entry: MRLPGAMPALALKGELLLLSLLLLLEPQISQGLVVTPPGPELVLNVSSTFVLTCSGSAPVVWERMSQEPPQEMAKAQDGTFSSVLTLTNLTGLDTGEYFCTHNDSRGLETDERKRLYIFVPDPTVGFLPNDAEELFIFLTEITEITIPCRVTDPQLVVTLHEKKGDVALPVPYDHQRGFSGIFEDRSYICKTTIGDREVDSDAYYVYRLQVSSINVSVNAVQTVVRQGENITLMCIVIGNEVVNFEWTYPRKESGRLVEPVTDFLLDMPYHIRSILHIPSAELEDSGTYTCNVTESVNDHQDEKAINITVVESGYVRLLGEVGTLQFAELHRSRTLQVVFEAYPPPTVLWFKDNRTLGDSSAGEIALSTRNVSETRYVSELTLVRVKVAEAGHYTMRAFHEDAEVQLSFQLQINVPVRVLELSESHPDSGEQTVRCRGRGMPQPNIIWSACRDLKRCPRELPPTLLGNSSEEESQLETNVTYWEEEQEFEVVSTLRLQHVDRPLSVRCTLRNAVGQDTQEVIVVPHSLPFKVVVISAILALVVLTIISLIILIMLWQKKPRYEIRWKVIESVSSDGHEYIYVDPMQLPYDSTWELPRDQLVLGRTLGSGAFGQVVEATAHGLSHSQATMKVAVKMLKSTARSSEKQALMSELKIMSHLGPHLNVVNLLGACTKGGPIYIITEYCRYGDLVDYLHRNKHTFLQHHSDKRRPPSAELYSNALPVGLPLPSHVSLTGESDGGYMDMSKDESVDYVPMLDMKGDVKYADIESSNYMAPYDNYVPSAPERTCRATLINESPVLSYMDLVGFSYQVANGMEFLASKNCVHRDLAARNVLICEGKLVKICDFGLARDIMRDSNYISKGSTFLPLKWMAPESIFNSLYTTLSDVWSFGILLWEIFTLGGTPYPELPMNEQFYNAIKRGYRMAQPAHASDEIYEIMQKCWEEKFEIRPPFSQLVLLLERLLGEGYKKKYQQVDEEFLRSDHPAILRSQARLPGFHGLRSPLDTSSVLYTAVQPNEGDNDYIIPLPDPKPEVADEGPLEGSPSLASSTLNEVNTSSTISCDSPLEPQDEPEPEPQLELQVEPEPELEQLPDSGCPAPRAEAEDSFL
UniProt P35968, whole entry: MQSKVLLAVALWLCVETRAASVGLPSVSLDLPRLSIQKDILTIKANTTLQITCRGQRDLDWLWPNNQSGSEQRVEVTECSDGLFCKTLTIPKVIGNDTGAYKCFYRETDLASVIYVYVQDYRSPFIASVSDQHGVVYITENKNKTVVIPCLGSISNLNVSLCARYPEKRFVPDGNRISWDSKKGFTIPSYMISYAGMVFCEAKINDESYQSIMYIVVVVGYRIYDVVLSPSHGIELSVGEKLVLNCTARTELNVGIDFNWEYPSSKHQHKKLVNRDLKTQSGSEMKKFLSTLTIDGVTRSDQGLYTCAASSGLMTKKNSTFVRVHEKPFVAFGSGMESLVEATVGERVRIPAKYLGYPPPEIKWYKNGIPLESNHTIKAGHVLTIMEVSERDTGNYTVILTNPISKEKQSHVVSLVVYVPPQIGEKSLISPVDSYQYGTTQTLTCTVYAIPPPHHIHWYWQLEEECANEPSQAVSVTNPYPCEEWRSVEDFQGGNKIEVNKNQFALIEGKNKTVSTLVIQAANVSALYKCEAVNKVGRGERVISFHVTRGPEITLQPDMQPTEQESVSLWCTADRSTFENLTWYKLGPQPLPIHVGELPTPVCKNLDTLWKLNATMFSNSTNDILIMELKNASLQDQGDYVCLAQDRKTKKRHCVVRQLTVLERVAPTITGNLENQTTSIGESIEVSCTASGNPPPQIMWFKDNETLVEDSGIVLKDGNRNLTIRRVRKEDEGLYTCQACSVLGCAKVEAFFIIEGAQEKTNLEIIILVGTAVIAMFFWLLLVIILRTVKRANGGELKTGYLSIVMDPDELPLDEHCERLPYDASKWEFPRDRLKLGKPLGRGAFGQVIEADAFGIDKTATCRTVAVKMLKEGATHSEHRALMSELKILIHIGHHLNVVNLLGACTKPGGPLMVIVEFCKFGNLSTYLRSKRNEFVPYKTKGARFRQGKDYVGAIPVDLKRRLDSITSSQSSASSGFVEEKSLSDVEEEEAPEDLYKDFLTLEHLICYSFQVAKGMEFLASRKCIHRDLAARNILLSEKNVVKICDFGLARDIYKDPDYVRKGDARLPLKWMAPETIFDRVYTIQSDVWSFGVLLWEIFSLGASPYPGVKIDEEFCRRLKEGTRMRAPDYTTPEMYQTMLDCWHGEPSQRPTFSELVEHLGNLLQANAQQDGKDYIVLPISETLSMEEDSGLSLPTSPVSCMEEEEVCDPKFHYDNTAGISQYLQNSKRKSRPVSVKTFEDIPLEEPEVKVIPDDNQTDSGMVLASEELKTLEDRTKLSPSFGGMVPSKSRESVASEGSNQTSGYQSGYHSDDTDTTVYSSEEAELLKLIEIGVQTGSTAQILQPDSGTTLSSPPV
UniProt Q13153, whole entry: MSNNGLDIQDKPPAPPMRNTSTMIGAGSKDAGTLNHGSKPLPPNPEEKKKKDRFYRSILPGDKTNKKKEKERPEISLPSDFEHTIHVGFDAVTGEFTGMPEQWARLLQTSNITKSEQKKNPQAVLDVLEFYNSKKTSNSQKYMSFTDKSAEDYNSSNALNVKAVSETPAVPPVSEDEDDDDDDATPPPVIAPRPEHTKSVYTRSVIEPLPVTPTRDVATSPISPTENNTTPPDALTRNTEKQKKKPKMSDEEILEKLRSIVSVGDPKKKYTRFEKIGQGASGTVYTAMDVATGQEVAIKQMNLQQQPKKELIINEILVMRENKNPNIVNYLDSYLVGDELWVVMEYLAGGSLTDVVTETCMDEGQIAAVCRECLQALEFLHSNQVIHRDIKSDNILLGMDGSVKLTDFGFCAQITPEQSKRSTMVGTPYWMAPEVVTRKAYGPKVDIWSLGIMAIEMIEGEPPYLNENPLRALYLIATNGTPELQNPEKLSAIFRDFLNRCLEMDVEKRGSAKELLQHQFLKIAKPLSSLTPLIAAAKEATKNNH
UniProt P07948: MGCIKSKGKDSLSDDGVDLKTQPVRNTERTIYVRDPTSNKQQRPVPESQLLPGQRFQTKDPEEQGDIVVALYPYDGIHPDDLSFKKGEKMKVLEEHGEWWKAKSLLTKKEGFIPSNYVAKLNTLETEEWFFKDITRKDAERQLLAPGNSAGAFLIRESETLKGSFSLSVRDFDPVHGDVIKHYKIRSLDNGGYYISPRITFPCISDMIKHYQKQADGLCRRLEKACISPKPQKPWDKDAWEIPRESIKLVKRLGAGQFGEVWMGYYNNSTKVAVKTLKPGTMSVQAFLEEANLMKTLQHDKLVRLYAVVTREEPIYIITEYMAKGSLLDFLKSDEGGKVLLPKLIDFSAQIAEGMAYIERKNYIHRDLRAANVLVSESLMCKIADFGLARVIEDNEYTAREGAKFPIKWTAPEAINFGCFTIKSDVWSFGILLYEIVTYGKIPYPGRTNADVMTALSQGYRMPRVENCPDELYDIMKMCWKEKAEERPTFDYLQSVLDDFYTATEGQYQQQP
UniProt P11362, whole entry, looked up: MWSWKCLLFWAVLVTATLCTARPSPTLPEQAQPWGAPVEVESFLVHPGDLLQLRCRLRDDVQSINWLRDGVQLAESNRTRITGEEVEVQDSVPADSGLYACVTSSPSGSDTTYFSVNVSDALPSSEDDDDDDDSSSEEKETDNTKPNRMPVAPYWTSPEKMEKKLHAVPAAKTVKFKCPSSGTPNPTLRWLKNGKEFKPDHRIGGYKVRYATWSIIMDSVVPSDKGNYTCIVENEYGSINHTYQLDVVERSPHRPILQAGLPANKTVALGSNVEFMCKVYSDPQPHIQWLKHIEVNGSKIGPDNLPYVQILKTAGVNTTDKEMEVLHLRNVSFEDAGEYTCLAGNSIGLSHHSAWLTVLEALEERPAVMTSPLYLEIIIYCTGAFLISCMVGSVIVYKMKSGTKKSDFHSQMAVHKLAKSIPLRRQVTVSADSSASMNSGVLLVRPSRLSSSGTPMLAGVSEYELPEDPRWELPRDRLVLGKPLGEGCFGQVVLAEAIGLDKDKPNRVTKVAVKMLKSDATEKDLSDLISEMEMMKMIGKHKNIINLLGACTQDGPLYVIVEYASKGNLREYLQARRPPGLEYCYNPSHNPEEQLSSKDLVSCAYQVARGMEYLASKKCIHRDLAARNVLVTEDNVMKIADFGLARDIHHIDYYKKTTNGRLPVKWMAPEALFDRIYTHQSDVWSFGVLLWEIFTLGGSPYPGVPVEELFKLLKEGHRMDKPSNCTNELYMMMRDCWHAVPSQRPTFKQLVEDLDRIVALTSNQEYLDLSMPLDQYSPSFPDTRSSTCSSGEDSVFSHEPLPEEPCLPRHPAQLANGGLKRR
UniProt P23458: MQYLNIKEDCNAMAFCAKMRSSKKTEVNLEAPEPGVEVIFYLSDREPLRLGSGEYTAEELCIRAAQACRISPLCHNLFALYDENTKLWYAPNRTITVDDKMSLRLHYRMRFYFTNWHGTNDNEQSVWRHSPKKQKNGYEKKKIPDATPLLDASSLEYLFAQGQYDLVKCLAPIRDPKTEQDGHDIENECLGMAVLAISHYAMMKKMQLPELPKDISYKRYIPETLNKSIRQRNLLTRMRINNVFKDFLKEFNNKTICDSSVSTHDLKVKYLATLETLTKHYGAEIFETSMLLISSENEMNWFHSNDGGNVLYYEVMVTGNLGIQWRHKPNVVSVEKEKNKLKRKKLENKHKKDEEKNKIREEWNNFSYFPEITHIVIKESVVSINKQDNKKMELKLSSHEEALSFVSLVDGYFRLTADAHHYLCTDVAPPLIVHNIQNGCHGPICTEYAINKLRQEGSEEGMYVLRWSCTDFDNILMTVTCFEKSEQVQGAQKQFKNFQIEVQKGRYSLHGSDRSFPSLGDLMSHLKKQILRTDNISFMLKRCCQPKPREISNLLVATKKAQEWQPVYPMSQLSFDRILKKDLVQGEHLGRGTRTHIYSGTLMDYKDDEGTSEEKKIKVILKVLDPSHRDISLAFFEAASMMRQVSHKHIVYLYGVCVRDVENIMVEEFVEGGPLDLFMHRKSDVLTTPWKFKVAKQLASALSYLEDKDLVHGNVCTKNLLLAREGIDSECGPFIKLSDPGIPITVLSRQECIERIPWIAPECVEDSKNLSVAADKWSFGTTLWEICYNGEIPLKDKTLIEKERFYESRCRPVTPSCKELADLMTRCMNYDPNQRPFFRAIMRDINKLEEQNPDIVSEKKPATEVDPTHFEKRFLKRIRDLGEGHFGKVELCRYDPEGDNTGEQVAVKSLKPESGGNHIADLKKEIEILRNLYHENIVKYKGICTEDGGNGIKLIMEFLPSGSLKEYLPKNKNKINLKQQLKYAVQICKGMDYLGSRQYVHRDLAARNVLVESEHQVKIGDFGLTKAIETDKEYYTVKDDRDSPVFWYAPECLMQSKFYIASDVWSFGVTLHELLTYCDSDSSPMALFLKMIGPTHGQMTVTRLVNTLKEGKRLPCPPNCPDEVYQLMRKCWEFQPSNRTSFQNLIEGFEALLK

Assays:
[1] = target: Cyclin-dependent kinase 4/cyclin D1 (Homo sapiens) (UniProt P11802+P24385); experiment: Inhibition of CDK4/Cyclin D1 (unknown origin) at 1 uM by adapta relative to control; assay type: protein-complex assay
[2] = target: Hepatocyte growth factor receptor (Homo sapiens) (UniProt P08581); experiment: Inhibition of MET (unknown origin) at 1 uM by Z-LYTE assay relative to control
[3] = target: Proto-oncogene tyrosine-protein kinase Src (Homo sapiens) (UniProt P12931); experiment: Inhibition of SRC (unknown origin) at 1 uM by Z-LYTE assay relative to control
[4] = target: Interleukin-1 receptor-associated kinase 4 (Homo sapiens) (UniProt Q9NWZ3); experiment: Inhibition of IRAK4 (unknown origin) at 1 uM by Z-LYTE assay relative to control
[5] = target: T1, Dual specificity protein kinase TTK (Homo sapiens) (UniProt P33981); experiment: Inhibition of TTK (unknown origin) at 1 uM by Lanthascreen assay relative to control
T1 sequence (whole entry): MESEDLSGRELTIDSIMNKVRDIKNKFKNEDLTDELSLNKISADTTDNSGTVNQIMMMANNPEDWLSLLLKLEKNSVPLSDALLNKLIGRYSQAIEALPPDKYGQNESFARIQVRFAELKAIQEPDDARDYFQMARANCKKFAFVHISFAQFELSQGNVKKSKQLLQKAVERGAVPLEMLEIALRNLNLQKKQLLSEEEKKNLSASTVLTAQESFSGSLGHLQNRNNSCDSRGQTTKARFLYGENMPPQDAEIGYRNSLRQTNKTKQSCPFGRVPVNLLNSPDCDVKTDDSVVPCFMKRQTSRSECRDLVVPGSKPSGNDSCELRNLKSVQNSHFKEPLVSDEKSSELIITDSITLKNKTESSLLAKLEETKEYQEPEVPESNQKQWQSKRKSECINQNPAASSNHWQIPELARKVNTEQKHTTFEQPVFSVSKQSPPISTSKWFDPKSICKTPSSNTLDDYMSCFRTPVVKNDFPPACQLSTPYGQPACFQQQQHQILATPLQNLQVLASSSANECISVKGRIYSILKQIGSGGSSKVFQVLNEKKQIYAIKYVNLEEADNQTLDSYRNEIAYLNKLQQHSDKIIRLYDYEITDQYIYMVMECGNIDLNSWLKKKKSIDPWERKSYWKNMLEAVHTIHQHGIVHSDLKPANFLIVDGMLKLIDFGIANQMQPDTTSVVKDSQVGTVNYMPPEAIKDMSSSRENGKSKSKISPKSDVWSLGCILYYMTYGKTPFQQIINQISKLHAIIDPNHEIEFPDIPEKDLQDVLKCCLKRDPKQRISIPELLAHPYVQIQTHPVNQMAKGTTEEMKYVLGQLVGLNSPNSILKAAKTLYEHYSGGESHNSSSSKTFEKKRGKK

[6] = target: Platelet-derived growth factor receptor alpha (Homo sapiens) (UniProt P16234); experiment: Inhibition of PDGFRalpha (unknown origin) at 1 uM by Adapta assay relative to control
[7] = target: Platelet-derived growth factor receptor beta (Homo sapiens) (UniProt P09619); experiment: Inhibition of PDGFRbeta (unknown origin) at 1 uM by Z-LYTE assay relative to control
[8] = target: Vascular endothelial growth factor receptor 2 (Homo sapiens) (UniProt P35968); experiment: Inhibition of VEGFR2 (unknown origin) at 1 uM by Z-LYTE assay relative to control
[9] = target: Serine/threonine-protein kinase PAK 1 (Homo sapiens) (UniProt Q13153); experiment: Inhibition of PAK1 (unknown origin) at 1 uM by Z-LYTE assay relative to control
[10] = target: Serine/threonine-protein kinase mTOR (Homo sapiens) (UniProt P42345); experiment: Inhibition of mTOR (unknown origin) at 1 uM by Z-LYTE assay relative to control
[11] = target: Tyrosine-protein kinase Lyn (Homo sapiens) (UniProt P07948); experiment: Inhibition of LYNa (unknown origin) at 1 uM by Z-LYTE assay relative to control
[12] = target: T2, Tyrosine-protein kinase receptor UFO (Homo sapiens) (UniProt P30530); experiment: Inhibition of AXL (unknown origin) at 1 uM by Z-LYTE assay relative to control
T2 sequence (whole entry): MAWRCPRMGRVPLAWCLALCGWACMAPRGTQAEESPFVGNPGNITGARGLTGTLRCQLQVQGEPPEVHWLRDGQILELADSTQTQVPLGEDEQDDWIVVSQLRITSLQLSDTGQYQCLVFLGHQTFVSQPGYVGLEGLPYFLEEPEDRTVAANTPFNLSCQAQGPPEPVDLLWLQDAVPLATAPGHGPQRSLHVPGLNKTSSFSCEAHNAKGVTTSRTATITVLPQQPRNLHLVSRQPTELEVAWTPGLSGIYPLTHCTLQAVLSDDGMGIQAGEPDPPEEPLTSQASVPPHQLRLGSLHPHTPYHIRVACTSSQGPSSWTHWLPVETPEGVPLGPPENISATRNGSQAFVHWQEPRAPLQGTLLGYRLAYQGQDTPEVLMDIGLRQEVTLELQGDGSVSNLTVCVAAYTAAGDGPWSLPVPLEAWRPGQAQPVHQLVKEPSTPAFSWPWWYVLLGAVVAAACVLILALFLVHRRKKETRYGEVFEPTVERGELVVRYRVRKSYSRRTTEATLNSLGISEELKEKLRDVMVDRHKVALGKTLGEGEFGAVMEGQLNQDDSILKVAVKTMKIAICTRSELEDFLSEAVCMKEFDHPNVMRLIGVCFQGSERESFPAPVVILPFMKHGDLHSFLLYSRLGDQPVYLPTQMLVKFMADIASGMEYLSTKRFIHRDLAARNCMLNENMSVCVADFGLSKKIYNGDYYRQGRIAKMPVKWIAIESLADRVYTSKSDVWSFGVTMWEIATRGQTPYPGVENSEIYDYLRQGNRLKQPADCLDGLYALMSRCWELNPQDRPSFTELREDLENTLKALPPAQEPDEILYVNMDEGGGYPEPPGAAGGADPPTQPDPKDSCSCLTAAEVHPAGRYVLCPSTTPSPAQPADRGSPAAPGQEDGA

[13] = target: Fibroblast growth factor receptor 1 (Homo sapiens) (UniProt P11362); experiment: Inhibition of FGFR1 (unknown origin) at 1 uM by Z-LYTE assay relative to control
[14] = target: Insulin-like growth factor 1 receptor (Homo sapiens) (UniProt P08069); experiment: Inhibition of IGF1R (unknown origin) at 1 uM by Z-LYTE assay relative to control
[15] = target: Tyrosine-protein kinase JAK1 (Homo sapiens) (UniProt P23458); experiment: Inhibition of JAK1 (unknown origin) at 1 uM by Z-LYTE assay relative to control

inhibition [1]: -6%
inhibition [2]: 11%
inhibition [3]: 8%
inhibition [4]: 0%
inhibition [5]: 13%
inhibition [6]: -3%
inhibition [7]: 49%
inhibition [8]: 21%
inhibition [9]: 20%
inhibition [10]: -1%
inhibition [11]: 10%
inhibition [12]: 3%
inhibition [13]: 22%
inhibition [14]: -1%
inhibition [15]: 1%
SMILES: O=C1Nc2cc(-c3ccc(NS(=O)(=O)c4ccc(F)c(Cl)c4)cc3)ccc2/C1=C/c1ccc[nH]1
